Test results as given in PubChem BioAssay AID504466 (National Center for Advancing Translational Sciences (NCATS), 2011).
The list shows a part of the results, in another mix than the full data. Inconclusive results are not listed. The source made the active and inactive calls. Calls follow the shape of the dose curve; as a rule, active = well fitted activation curve with a large enough effect; inconclusive = small, poorly fitted or top-dose-only effect; inactive = no such curve, though single readings can be large or run the other way.

test: qHTS screen for small molecules that induce genotoxicity in human embryonic kidney (HEK293T) cells expressing luciferase-tagged ELG1; settings: HEK293T ELG1-luciferase reporter, luminescence, 16 h; at 46 µM (top of the series); also: % of control where 0% means no effect; nearly all actives have a fitted effect of over 60% in size
Text: NIH Molecular Libraries Probe Production Network [MLPCN] NIH Chemical Genomics Center [NCGC] MLPCN Grant: 1 R03 MH092164-01 Assay Provider: Kyungjae Myung, NHGRI, NIH Keywords: MLPCN, qHTS, NCGC, genotoxicity, cancer Assay Overview: Cancer cells divide rapidly compared to normal cells in the body. During cell division, cancer cells need to duplicate their genome by DNA replication. The failure of genome duplication leads to cancer cells' death. Therefore, inhibitors of DNA replication could specifically kill cancer cells. Based on this concept, many chemotherapeutic agents were developed and have been used to treat cancer patients. However, there are a limited number of agents available in the clinical setting, and some of those that do exist have low efficacy and severe side effects. […] With this in mind, we developed a quantitative high-throughput ELG1-luciferase reporter gene assay. […]
Assay Protocol Summary: For genotoxicity screening, 2,000 cells in 5 uL/well were dispensed into white, solid-bottom 1536-well plates using a solenoid-based dispenser. […] 5 ul ONE-Glo (Promega) was then added to each plate and following a 30 min incubation at room temperature, luciferase activity was quantified on a ViewLux CCD-based plate reader.

Row | SMILES | activity change, positive = activation
1 | CCC(=O)N(c1ccccc1)C1(COC)CCN(CCc2cccs2)CC1 | inactive: -2.06%
2 | CCC(=O)N(c1ccccc1)C1(COC)CCN(CCn2nnn(CC)c2=O)CC1 | inactive: 0.893%
